Read-outs that look alike come from different tables or passages of the source.
Molecular target: human ACC2 (Homo sapiens (Human), UniProt O00763)
Assay: ACC2 assay (spectrophotometric 384 well assay, NADH-linked coupled lactate dehydrogenase/pyruvate kinase)
[1] = hACC2 construct lacking 128 N-terminal amino acids, 25° C., 340 nm, 15 minutes

Amino acid sequences for entries named in this document (tags omitted). Residues count along the entry.
UniProt O00763, 129-2458 limits assumed: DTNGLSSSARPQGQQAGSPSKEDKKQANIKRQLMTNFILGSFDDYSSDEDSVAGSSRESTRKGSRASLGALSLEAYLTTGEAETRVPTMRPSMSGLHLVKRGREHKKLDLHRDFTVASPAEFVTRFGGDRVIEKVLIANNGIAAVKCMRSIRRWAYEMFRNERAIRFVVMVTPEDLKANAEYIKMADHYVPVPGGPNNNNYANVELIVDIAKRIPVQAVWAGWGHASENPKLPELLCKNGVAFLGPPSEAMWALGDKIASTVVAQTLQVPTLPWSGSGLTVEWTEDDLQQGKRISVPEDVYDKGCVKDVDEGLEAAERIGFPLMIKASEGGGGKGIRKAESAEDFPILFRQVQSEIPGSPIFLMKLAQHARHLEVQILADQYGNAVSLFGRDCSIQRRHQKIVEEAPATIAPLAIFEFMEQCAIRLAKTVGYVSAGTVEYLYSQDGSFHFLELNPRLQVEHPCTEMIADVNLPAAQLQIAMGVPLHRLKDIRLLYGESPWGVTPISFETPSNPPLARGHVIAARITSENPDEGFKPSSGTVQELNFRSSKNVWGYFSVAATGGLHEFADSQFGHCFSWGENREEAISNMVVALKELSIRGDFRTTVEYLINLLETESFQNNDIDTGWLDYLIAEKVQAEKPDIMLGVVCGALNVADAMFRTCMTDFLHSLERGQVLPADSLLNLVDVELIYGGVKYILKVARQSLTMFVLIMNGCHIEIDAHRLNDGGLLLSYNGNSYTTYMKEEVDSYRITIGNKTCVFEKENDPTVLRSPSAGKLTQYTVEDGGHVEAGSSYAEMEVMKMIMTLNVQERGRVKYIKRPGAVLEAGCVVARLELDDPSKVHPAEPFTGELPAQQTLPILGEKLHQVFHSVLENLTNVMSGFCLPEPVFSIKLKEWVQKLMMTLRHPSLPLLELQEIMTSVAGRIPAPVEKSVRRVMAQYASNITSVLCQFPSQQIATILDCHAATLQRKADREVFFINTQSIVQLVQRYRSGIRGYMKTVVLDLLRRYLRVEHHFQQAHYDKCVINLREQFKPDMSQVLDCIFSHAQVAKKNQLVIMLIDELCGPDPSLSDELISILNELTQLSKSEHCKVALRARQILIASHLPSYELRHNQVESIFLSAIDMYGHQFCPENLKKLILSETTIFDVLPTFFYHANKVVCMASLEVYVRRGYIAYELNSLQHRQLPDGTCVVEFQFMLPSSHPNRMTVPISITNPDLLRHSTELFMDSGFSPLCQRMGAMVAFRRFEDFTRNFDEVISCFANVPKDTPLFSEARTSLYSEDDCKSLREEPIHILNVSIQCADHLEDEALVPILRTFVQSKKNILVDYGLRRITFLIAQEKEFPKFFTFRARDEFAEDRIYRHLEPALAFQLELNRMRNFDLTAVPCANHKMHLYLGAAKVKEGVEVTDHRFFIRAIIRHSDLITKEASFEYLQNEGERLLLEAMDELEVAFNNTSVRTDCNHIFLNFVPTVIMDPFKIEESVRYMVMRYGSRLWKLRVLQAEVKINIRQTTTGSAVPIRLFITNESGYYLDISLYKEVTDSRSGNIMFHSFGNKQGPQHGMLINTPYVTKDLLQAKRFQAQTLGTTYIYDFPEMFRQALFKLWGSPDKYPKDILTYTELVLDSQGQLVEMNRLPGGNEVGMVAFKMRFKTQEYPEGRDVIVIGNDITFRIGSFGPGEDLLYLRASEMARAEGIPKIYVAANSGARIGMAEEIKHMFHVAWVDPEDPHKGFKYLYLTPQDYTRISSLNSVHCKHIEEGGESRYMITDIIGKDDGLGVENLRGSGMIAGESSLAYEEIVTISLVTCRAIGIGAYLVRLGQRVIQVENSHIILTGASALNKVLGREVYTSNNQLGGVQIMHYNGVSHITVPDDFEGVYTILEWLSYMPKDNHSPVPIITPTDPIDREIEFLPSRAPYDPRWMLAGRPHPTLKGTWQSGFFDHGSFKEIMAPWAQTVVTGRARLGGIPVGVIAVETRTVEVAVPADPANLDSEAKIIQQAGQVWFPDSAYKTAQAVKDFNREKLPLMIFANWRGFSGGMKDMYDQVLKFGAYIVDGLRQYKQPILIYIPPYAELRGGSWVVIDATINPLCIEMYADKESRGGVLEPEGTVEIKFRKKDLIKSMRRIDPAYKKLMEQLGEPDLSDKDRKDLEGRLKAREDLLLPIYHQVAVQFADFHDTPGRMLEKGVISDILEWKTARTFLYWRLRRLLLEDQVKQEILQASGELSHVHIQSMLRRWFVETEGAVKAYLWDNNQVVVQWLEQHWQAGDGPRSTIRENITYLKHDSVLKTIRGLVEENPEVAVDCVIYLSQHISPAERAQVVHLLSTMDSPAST

SMILES | IC50 [nM] | IC50 [1] [nM]
CCOc1ccc(N2CC(Oc3ccc([C@H](C)NC(C)=O)cc3)C2)cc1OCC | 2550 | 
CCOc1ccc(N2CC(Oc3ccc([C@H](C)NC(=O)c4ccncc4)cc3)C2)cc1 |  | 1260
CC(=O)N[C@@H](C)c1ccc(OC2CN(c3ccc(Cl)cn3)C2)cc1 |  | 460

From patent US8530460B2, “Azetidine derivatives” (Boehringer Ingelheim International GmbH, priority 2011, dated 2013)
